Measurements taken from patent US20240225973A1, “COSMETIC COMPOSITION FOR IMPROVING SENSITIVE SKIN” (LG HOUSEHOLD & HEALTH CARE LTD., priority 2023, published 2024).

System: beta-defensin 2 (human β-defensin 2, hBD-2)
Experiment: beta-defensin 2 synthesis ELISA in cortisol-treated HaCaT cells
Assay type: cell-based
Method: First, HaCaT, which is a human epidermal cell of the outermost layer among skin cells, was cultured using Dulbecco's Modified Eagle's Media (DMEM; Gibco, USA) mixed with 10% fetal bovine serum (FBS; Gibco, USA) and 1% antibiotic antimycotic (Gibco, USA) in a 24-well plate under conditions of 37° C. and 5% CO2. […] […] After 24 hours, the cells were treated with curcumin, taurine, and acetyl hexapeptide-8 at experimental concentrations, and cultured for 24 hours. At this time, curcumin, taurine, and acetyl hexapeptide-8 were treated alone, and the concentration of curcumin was fixed at 0.1 ppm and 1 ppm, and then taurine and acetyl hexapeptide-8 were treated in combination of concentrations, and cultured for 24 hours. 24 hours after treatment with each sample, ELISA was performed to quantify the amount of beta-defensin 2 (human β-defensin 2, hBD-2) protein synthesis. ELISA was performed using the HUMAN BETA DEFENSIN 2 ELISA kit (ALPHA DIAGNOSTIC, USA) and using the cell culture medium according to the kit's manual, and the final protein amount was calculated by measuring absorbance at 400 nm. […] At this time, when the amount thereof increased compared to the decrease due to cortisol, it was interpreted that the synthesis of beta-defensin 2 was increased by the sample. In addition, the synergistic effect between respective active substances that enhance beta-defensin 2 which had been reduced by cortisol was predicted through the Colby formula, and when the actual measured value was greater than the predicted value, it was determined that there was the synergistic effect.

acetyl hexapeptide-8
Production amount of beta-defensin 2 (%) (Table 4: each substance at 1 ppm, alone or three cotreated, Cortisol (5 μM) = 100): 98.75% | Production amount of beta-defensin 2 (%) (single treatment 0.01 ppm, 24 h, HaCaT, cortisol group = 100): 98.45% | Production amount of beta-defensin 2 (%) (single treatment 0.1 ppm, 24 h, HaCaT, cortisol group = 100): 101.37% | Production amount of beta-defensin 2 (%) (single treatment 1 ppm, 24 h, HaCaT, cortisol group = 100): 98.75% | Production amount of beta-defensin 2 (%) (single treatment 5 ppm, 24 h, HaCaT, cortisol group = 100): 110.12% | Production amount of beta-defensin 2 (%) (single treatment 10 ppm, 24 h, HaCaT, cortisol group = 100): 92.66% | enhancement efficacy (beta-defensin 2 synthesis) (single treatment at 0.1 ppm): confirmed | enhancement efficacy (beta-defensin 2 synthesis) (single treatment at 5 ppm): confirmed
